The source of these data is patent US4709079A, “Polyprenyl compounds, process for the production thereof and medicines containing same” (priority 1981, dated 1987).

In data set [1] the test system is cold restraint stress-induced ulcer, gastric membranes. The experiment in a line: worsening of cold restraint stress-induced ulcer. Conditions: peroral, two hours after application of stress. The class given is in vivo, Wistar rats. The protocol: Cold restraint stress was applied to Wistar rats (7 weeks old) by a conventional method. 0.5 ml/100 g (body weight) of compound C or Indomethacin (suspended in 5% acacia syrup containing 3.6% Tween 80) was administered perorally to the rats. Two hours after the application of stress, the length of ulcer (ulcer index) in the gastric membranes was measured.

Data set [2] in a line: in vivo. Conditions: rat, po, peroral, 20% solution in sesame oil.
Data set [3] has as its system carrageenan-induced edema. The experiment in a line: carrageenan-induced edema controlling test, sole edema method (Experiments 1 and 2). Also on record: species or system male S.D. rats. The following applies: rat, in vivo, po. The protocol: Effects of controlling carrageenan-induced edema were examined by the sole edema method, see Winter et al.; Pro. Soc. Exp. Biol. Med., 111, 544 (1962), wherein carrageenan was used as an inflaming agent and male S.D. rats weighing 150-180 g were used as the test animals (each group comprised 5 rats).
As the test compounds, Compound C, Indomethacin and Ibuprofen were used. The test compound was dissolved in sesame oil and the solution was administered perorally to the rats 6 hours before the administration of the inflaming agent. The volumes of the hind leg soles were measured 3 hours after the administration of the inflaming agent. Edema rate was calculated according to the following formula (1) and the edema control rate was calculated according to the following formula (2). The median effective dose (ED50) in the carrageenan-induced edema method was calculated from the frequency of cases in which significant edema control was observed (the number of rats having an edema control rate of at least 30%) in each group according to the Litchfield-Wilcoxon method. [formula] wherein a is the volume of the hind leg sole before the edema induction and b is the corresponding value after the edema induction. […]
Carrageenan-induced edema control rates were determined according to formula (2) in the same manner as in Experiment 1 except that each group comprised 8 rats.

Data set [4] has as its system gastric membranes. The experiment in a line: effects on gastric membranes of normal rats (ulceration). The class given is in vivo, Wistar ST rats. The following applies: dose 153 mg/kg, peroral, 4 hours, fasted normal rats. The protocol: After the rats fasted for 24 hours, 0.5 ml./100 g (body weight)(suspension in 5 wt. % acacia syrup containing 3.6 wt. % Tween 80) of compound C and Indomethacin were administered perorally to Wistar ST rats (7 weeks old). Four hours thereafter, the ulceration conditions in the gastric membranes were examined.

Data set [5] deals with adjuvant-induced arthritis. The experiment in a line: adjuvant-induced arthritis controlling test. The following applies: rat, in vivo, po. Also on record: species or system F-344 rats. The protocol:
Arthritis was induced in F-344 rates (6 weeks) (Japanese Charles Liver) according to the method of Winder, C. V., et al; Arthritis Rheum. 12, 472-482 (1969) and the controlling effects were examined. 0.05 ml. of a suspension (6 mg/ml) of Mycobacterium butyricum (Difco) in liquid paraffin was in]ected in the sole of the right leg of each rat to induce arthritis. As test compounds, Compound C and Indomethacin (control) were used. The former was dissolved in sesame oil and the latter was suspended in acacia. The administration of the test compounds was started on the same day as the adjuvant injection. The test compounds were administered perorally every day for 19 days.

Read-outs that look alike come from different tables or passages of the source.

In the case of `COc1ccc2c(c1)c(CC(=O)OCC=C(C)CCC=C(C)CCC=C(C)C)c(C)n2C(=O)c1ccc(Cl)cc1` [Compound C, 1-(p-Chlorobenzoyl)-2-methyl-5-methoxy-3-indolylacetic acid 3,7,11-trimethyl-2,6,10-dodecatrienyl ester], the “Ulcer index (Mean ± S.E.), length of ulcer” value in data set [1] (dose 30.6 mg/kg) came to 5.6 ± 2.2; in data set [1] (dose 153.0 mg/kg) it was 4.9 ± 1.8. In addition, the LD50 in data set [2] (female SD rats, read-out: LD50 female) is 2000 to 2520 mg/kg; in data set [2] (male SD rats, read-out: LD50 male), 1290 to 1860 mg/kg. Besides, the “LD50/ED50 ratio in the carrageenan-induced edema controlling test” value in data set [3] is given as 160-230. The “Ulcer index (mean ± S.E.)” value in data set [4] is on record as 0.0 ± 0.0. In addition, the “LD50/ED50 ratio in the adjuvant-induced arthritis test” value in data set [5] is listed as 410-560.
